Data published in patent US11124550B2, “Proteinaceous molecules and methods of use” (priority 2015, dated 2021).

Test system: CA1 pyramidal neurons from SCN1A (R1407X) Dravet syndrome mice
Assay: Brain-slice whole-cell recordings, excitatory neurons
Type: cell-based, mouse
Settings: 10 nM
Method: Mice (post-natal day 14-16) were anaesthetized using isoflurane and sacrificed by decapitation. Brain slices (300-μm thick) were cut using a vibratome in the sagittal plane. Slices were kept at room temperature until recording. The slices were transferred to a recording chamber constantly perfused at 34° C. with artificial cerebrospinal fluid (CSF) solution consisting of: 125 mM NaCl, 2.5 mM KCl, 25 mM NaHCO3, 1.25 mM NaH2PO4, 1 mM MgCl2, 2 mM CaCl2) and 10 mM glucose, aerated with 95% O2 and 5% CO2 (final pH of 7.4). Whole-cell patch-clamp recordings were made using a MultiClamp 700A amplifier and pClamp acquisition software (Molecular Devices) from neurons visually identified using infrared differential interference contrast imaging (BX51, Olympus). Electrodes were pulled using a Sutter P-2000 puller (Sutter Instruments) from borosilicate micropipettes (World Precision Instruments) with an initial resistance of ˜2-3 megaohms and filled with intracellular solution consisting of 125 mM KGlu, 4 mM KCl, 2 mM MgCl2, 10 mM HEPES, 10 mM EGTA, 4 mM ATP-Mg, 0.3 mM GTP-Na, and 8 mM Biocytin Hydrochloride adjusted to a final pH of 7.3 with KOH. D-Mannitol was used to adjust osmolarity to 300 mOsm. Bridge balance was applied to all recordings. Voltage recordings were filtered at 30 kHz and sampled at 100 kHz. A holding current was injected into neurons if required, setting their holding potential to approximately −75 mV. A current injection/action potential (AP) frequency relationship was established by injecting an 800 ms square pulse of progressively depolarising currents. An automated AP detection algorithm in Axograph was used to detect AP with visual confirmation. The integrated number of APs between injection current bins of the i-o relationships was calculated (Axograph X) in order to allow comparison between control and Hm1a. AP threshold voltage was defined as the voltage at which velocity reached 10 mV/ms. For the AP waveform analysis, amplitude was measured from threshold to peak, rise-time was determined as the time between 10% to 90% of the AP amplitude and AP width was measured at 50% of the peak amplitude. AP measured at ‘collapse’ were selected for each individual cell at the first current injection at which AP collapse was robust. APs at the same current injection were analyzed in the presence of Hm1a. Membrane input resistance was measured in current clamp mode by measuring the last 200 ms of the voltage trace generated by a current injection of −10 pA.
To test the impact of synthetic Hm1a (Example 1) on excitatory neurons, whole-cell recordings were made from CA1 pyramidal neurons isolated from SCN1A (R1407X) Dravet syndrome mice. The input current versus AP firing rate relationship was not altered by the application of 10 nM Hm1a (FIG. 7). Hm1a had no impact on resting potential (Table 9) or input resistance (450±70 versus 420±60 MΩ, p=0.8, n=6) of the pyramidal neurons.

CC(C)C[C@@H]1NC(=O)[C@H](Cc2ccc(O)cc2)NC(=O)[C@H](CCCNC(=N)N)NC(=O)[C@@H](NC(=O)[C@@H](N)CCC(=O)O)CSSC[C@@H]2NC(=O)[C@@H]3CSSC[C@@H](C(=O)N[C@@H](C)C(=O)N[C@@H](Cc4c[nH]c5ccccc45)C(=O)N[C@@H](CC(=O)O)C(=O)NCC(=O)N[C@H](C(=O)N[C@@H](Cc4ccccc4)C(=O)N[C@@H](CO)C(=O)O)[C@@H](C)O)NC(=O)[C@H](Cc4ccc(O)cc4)NC(=O)[C@H](CCCCN)NC(=O)[C@H](Cc4c[nH]c5ccccc45)NC(=O)[C@H](CC(=O)O)NC(=O)[C@H](CO)NC(=O)[C@H](CCCNC(=N)N)NC(=O)[C@H](CSSC[C@H](NC(=O)CNC(=O)CNC(=O)[C@H](Cc4ccccc4)NC1=O)C(=O)N[C@@H](CO)C(=O)N[C@@H](CO)C(=O)N[C@@H]([C@@H](C)O)C(=O)N[C@@H](CO)C(=O)N[C@@H](CC(=O)O)C(=O)N3)NC(=O)[C@H](CO)NC(=O)[C@H](CC(C)C)NC(=O)[C@H](Cc1c[nH]cn1)NC(=O)[C@H](CCCCN)NC2=O [Hm1a]
input current versus AP firing rate relationship: not altered
input resistance (450±70 versus 420±60, p=0.8, no impact): 420±60 MΩ
Action potential Rise at rheobase (control 0.45 ± 0.03): 0.46 ± 0.05 ms
Action potential Width at rheobase (control 2.1 ± 0.2): 2.1 ± 0.1 ms
RMP (control 75 ± 2): 73 ± 2 mV
Action potential Amp at rheobase (control 99 ± 3, n = 6): 97 ± 4 mV
Action potential Threshold at rheobase (control −48.2 ± 2.9): −43.1 ± 3.1 mV
